miR-122 sensor: miR-122 inhibition in Huh7 cells; Huh7 miR-122 Renilla luciferase sensor, 48 h; neutral wells = 0, positive control = 100; activation (reporter increase), % at 12.5 µM; 0.3% of 340,000 active; AID 602342;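 active means mean replicate activation score at least 90 and every replicate individually at or above 90; inconclusive means only one of the two criteria met; inactive means neither criterion met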;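 further: higher luciferase means less miR-122 activity so hits act as miR-122 inhibitors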
Wnt bcat act: Wnt/beta-catenin pathway activation; activation, % at 9.35 µM; 1.2% of 300,000 active; Wnt/beta-catenin reporter cell assay, activator, plate reader; in the data active means activation above about 30%, passing the limit was not always enough; inconclusive means no clear call, values can overlap the other calls
MITF TRPM1 HTS: activators of MITF-driven TRPM1 promoter activity in SK-MEL-5 cells; SK-MEL-5 TRPM1-promoter luciferase, 24 h; % of positive control, neutral wells = 0; activation, % at 12.5 µM; 0.75% of 300,000 active;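 active means mean activation of at least 80% with every replicate also reaching 80%; inconclusive means mean reaches 80% but some replicate falls short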
Yeast UUG start: alters start codon recognition fidelity in yeast. S. cerevisiae UUG-firefly luciferase reporter, luminescence/redox ratio. AID 602363. activity score, % at 18.7 µM. hit rate 0.13% among 350,000;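 active = replicate mean at a twofold rise or more, about +100% in these data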;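 note: firefly luciferase made from a UUG start codon reports start codon fidelity; reporter light over untreated wells divided by growth signal over untreated wells; some hits fall short of that in this replicate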
MITF TRPM1 inh: MITF TRPM1 promoter inhibition in SK-MEL-5 cells; 0.83% of 330,000 active; SK-MEL-5 TRPM1 promoter luciferase, 24 h; inhibition, % at 12.5 µM;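 active means mean inhibition across replicates of 60% or more, whatever share of single replicates reaches that level; inconclusive means some that reach 60%, reason not given; inactive means mean inhibition across replicates below 60%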
PGC1a acetyl inh: lowers PGC1a acetylation signal in U2OS cells; AlphaScreen anti-acetyl-lysine; with virally co-expressed GCN5 acetyltransferase; inhibition, % at 15.6 µM; 0.17% of 350,000 active; AID 651687;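 active means every replicate shows inhibition of at least 40%; inconclusive means mean inhibition at least 40% but some replicate below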
Numbers stand for hits; i = inactive; ? = inconclusive; nt = not tested or not shown. Compounds with a hit are over-represented: about 2.1% of the library has one in this group of screens.

SMILES	miR-122 sensor	Wnt bcat act	MITF TRPM1 HTS	Yeast UUG start	MITF TRPM1 inh	PGC1a acetyl inh
Cc1noc(C)c1NC(=O)N(C)C[C@@H]1Oc2ncc(C#CC(C)C)cc2C(=O)N([C@H](C)CO)C[C@@H]1C	i	nt	nt	i	nt	i
CCCC(=O)NC(c1ccc(C(C)C)cc1)c1ccc2cccnc2c1O (stereo unspecified)	nt	i	nt	i	i	nt
CCCC(=O)NC(c1ccc(N(C)C)cc1)c1ccc2cccnc2c1O (stereo unspecified)	i	i	i	i	72.6	i
COc1ccc(C(NC(=O)C(C)C)c2ccc3cccnc3c2O)cc1 (stereo unspecified)	i	i	i	i	76.3	i
C[C@@H]1CN([C@@H](C)CO)C(=O)c2cc(C#CC3CCCCC3)cnc2O[C@@H]1CN(C)Cc1ccncc1	i	nt	nt	i	nt	i
CC(=O)Nc1ccc(NC(=O)Nc2ccc3c(c2)N(C)C(=O)CS3)cc1	nt	nt	i	nt	i	nt
O=C(Nc1ccc(Cl)c(Cl)c1)Nc1ccccn1	i	36.6	i	i	i	i
COc1ccc(NC(=O)Nc2ccccn2)cc1OC	i	i	i	nt	i	nt
CN1C(=O)CSc2ccc(NC(=O)Nc3ccccn3)cc21	nt	i	143.1	nt	i	nt
O=C(C[C@@H]1C[C@H]2c3cc(NC(=O)C4CCOCC4)ccc3O[C@H]2[C@H](CO)O1)NCc1cccc(F)c1	i	nt	nt	i	nt	i
Cc1ccc(NC(=O)Cc2ccc(Cl)cc2)cc1S(=O)(=O)N1CCCCCC1	i	i	i	i	i	i
Cc1ccc(NC(=O)CN(C)C(=O)Cn2ncc(Cl)c(Cl)c2=O)cc1	i	nt	i	i	90.5	nt
Cc1ccc(NC(=O)Cn2ncc(Cl)c(Cl)c2=O)cc1S(=O)(=O)N1CCCCC1	nt	i	i	i	97.2	i
Cc1ccc(NC(=O)CN(C)C(=O)Cc2ccc(Cl)c(Cl)c2)cc1	nt	i	i	i	i	nt
CO[C@H]1CN(C)C(=O)c2cc(NC(=O)c3ccccc3F)ccc2OC[C@@H](C)N(CC2CC2)C[C@H]1C	nt	nt	nt	i	nt	i
C=CCn1c(C)cc(C(=O)Cn2ncc(Cl)c(Cl)c2=O)c1C	i	i	i	i	67.4	?
O=C(Cn1ncc(N2CCOCC2)c(Cl)c1=O)c1ccc(Cl)cc1	i	i	i	nt	i	nt
CC(C)(C)C(=O)Cn1ncc(Cl)c(Cl)c1=O	nt	i	i	nt	91.3	nt
O=C(Cn1ncc(Cl)c(Cl)c1=O)c1ccc(Cl)cc1	i	nt	i	nt	80.4	85.3
O=c1cnn(Cc2ccc(F)cc2)c2ccccc12	nt	i	i	i	i	nt
O=c1c(Cl)c(Cl)cnn1Cc1ccc(F)cc1	nt	nt	i	i	81.1	nt
C[C@@H]1CN([C@H](C)CO)C(=O)c2cc(NS(=O)(=O)c3ccc(Cl)cc3)ccc2O[C@@H](C)CCCCO[C@H]1CN(C)Cc1ccc2c(c1)OCO2	i	nt	nt	i	nt	i
CCC(=O)N1CC[C@@H]2[C@@H](CO)Nc3ccc(-c4cccc(C#N)c4)cc3[C@@H]21	i	nt	nt	i	nt	i
Cc1ccc(S(=O)(=O)NCC[C@H]2CC[C@H](NC(=O)c3cccc(F)c3)[C@@H](CO)O2)cc1	nt	nt	nt	i	nt	i
C[C@H](CO)N1C[C@H](C)[C@@H](CN(C)C(=O)Nc2ccc(C(F)(F)F)cc2)Oc2c(NC(=O)CCCCCC(=O)Nc3ccccc3N)cccc2C1=O	nt	nt	nt	nt	nt	i
SMILES	miR-122 sensor	Wnt bcat act	MITF TRPM1 HTS	Yeast UUG start	MITF TRPM1 inh	PGC1a acetyl inh
CCO[C@@H]1OC(C(=O)N2CCCC2)=C[C@H](c2ccc3c(c2)OCO3)[C@H]1CCCO	nt	nt	nt	nt	nt	i
O=C(OCCN1CCCCC1)c1ccccc1Cl	i	i	i	i	i	i
O=C(OCn1ncc(Cl)c(Cl)c1=O)c1ccccc1Cl	i	nt	i	i	110.9	nt
O=C(NC1CCCN(Cc2ccc(Cl)cc2)C1)c1ccccc1C(F)(F)F (stereo unspecified)	i	i	i	i	i	47.2
O=C(NC1CCCN(Cc2ccc(Cl)cc2)C1)c1c(F)cccc1F (stereo unspecified)	i	i	i	i	i	i
C[C@H]1CN([C@@H](C)CO)C(=O)Cc2cc(NS(=O)(=O)c3ccccc3)ccc2O[C@@H]1CN(C)Cc1ccc(C(=O)O)cc1	i	nt	nt	nt	nt	i
Cc1ccc(S(=O)(=O)Nc2ccccc2-c2ccccc2)cc1	161.5	i	i	i	i	i
C/C=C/c1cnc2c(c1)C(=O)N([C@H](C)CO)C[C@@H](C)[C@H](CN(C)C(=O)NC1CCCC1)O2	i	nt	nt	i	nt	i
CCOC(=O)c1ccc(N2Cc3ccccc3C2=NC(=O)c2ccncc2)cc1	nt	46.3	102.2	nt	i	nt
CC(=O)c1ccc(N2Cc3ccccc3C2=NC(=O)c2cccs2)cc1	i	?	93.6	i	i	i
CCOC(=O)c1ccc(N2Cc3ccccc3C2=N)cc1	i	i	i	i	i	i
CCOC(=O)c1ccc(N2Cc3ccccc3C2=NC(=O)c2cccs2)cc1	nt	i	112.4	nt	i	nt
O=C(C1CC1)N1C[C@H]2[C@@H](c3ccccc31)[C@H](CO)N2S(=O)(=O)c1ccccc1	i	nt	nt	i	nt	i
O=C(C[C@@H]1C[C@H]2c3cc(NC(=O)C4CCOCC4)ccc3O[C@H]2[C@@H](CO)O1)NCc1cccc(F)c1	i	nt	nt	i	nt	i
COc1ccc(-c2c(O)c(C#N)c(-c3ccccc3)n(-c3ccc(OC)cc3)c2=O)cc1	97.2	i	i	i	i	nt
CC(C)NC(=O)N1CCCN(c2nc3ccc(Cl)cc3s2)CC1	i	30.8	i	i	i	nt
COc1ccc(NC(=O)Nc2ccc3c(c2)C(=O)N([C@@H](C)CO)C[C@H](C)[C@H](CN(C)C(=O)Nc2ccc(OC)cc2)OCCCC[C@H](C)O3)cc1	i	nt	nt	i	nt	i
Cc1cccc(NC(=O)COC(=O)c2cccc(S(=O)(=O)N3CCCCCC3)c2)c1	nt	i	i	i	i	nt
Cc1cc(C)cc(NC(=O)COC(=O)c2cccc(S(=O)(=O)N3CCCCC3)c2)c1	nt	32.5	i	i	i	i
Cc1ccc(O)c(NC(=O)c2cccc(S(=O)(=O)N3CCCCC3)c2)c1	112.9	i	i	i	i	i
COc1ccc(NC(=O)N(C)C[C@H]2OCCCC[C@@H](C)Oc3ccc(NS(=O)(=O)c4c(C)noc4C)cc3C(=O)N([C@H](C)CO)C[C@H]2C)cc1	i	nt	nt	i	nt	i
COc1ccc(S(=O)(=O)Nc2ccc3c(c2)C(=O)N([C@H](C)CO)C[C@H](C)[C@H](CN(C)Cc2ccncc2)OCCCC[C@@H](C)O3)cc1	i	nt	nt	i	nt	i
COc1ccc(CN(C)C[C@@H]2OCCCC[C@H](C)Oc3ccc(NC(=O)Cc4ccccc4)cc3C(=O)N([C@H](C)CO)C[C@H]2C)cc1	i	nt	nt	i	nt	i
